In US6936585B2, “Corticotropin releasing factor 2 receptor agonists” (priority 2002, dated 2005):

Assays:
CRF2R = molecular target: T1, CRF2R (Homo sapiens, UniProt Q13324); test: CRF2R agonist activation (EC50 / Emax), called comparative CRF binding; format: cell-based; conditions: read-out: CRF2R Emax
T1 sequence (Q13324 1-411): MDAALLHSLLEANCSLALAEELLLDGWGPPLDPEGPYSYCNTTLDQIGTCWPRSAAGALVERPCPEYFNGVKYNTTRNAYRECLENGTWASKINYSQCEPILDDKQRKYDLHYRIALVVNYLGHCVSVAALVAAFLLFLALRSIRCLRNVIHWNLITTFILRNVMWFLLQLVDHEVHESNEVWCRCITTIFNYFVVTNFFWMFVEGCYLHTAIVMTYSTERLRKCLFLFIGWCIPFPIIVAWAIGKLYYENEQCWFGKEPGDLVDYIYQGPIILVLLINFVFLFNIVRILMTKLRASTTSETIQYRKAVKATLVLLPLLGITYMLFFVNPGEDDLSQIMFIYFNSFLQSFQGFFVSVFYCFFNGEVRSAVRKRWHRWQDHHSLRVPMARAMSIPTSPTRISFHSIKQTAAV
Procedure, shortened: (§1)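 Peptides are tested on cells bearing CRF1R or CRF2R, full length or as ligand-binding-domain constructs coupled to reporters or G proteins. Activation is scored by cAMP rise, measured in lysates or by CRE-reporter output, against vehicle control.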

CRF1R = molecular target: T2, CRF1R (Homo sapiens, UniProt P34998); test: CRF1R agonist activation (EC50 / Emax), called comparative CRF binding; format: cell-based; conditions: read-out: CRF1R Emax
T2 sequence (P34998 24-415): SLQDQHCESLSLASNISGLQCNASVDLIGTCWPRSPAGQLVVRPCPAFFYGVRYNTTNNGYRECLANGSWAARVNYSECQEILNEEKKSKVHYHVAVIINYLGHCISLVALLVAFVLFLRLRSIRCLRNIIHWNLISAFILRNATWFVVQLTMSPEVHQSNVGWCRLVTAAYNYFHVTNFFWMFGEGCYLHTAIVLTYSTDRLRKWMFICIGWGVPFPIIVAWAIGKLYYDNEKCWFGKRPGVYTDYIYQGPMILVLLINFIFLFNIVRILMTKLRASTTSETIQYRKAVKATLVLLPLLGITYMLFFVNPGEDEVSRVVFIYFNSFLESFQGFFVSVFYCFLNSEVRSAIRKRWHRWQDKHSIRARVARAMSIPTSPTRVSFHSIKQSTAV
Procedure, shortened: as §1

SMILES	Emax (CRF2R) [%]	Emax (CRF1R) [%]
CC[C@H](C)[C@H](NC(=O)[C@H](CCCNC(=N)N)NC(=O)[C@H](C)NC(=O)[C@H](CC(N)=O)NC(=O)[C@@H](NC(=O)[C@@H](NC(=O)[C@H](C)NC(=O)[C@H](CCC(N)=O)NC(=O)[C@H](CCC(N)=O)NC(=O)[C@H](CCCCN)NC(=O)[C@H](CCC(=O)O)NC(=O)[C@H](CCCCN)NC(=O)[C@H](CCC(=O)O)NC(=O)[C@H](CCC(N)=O)NC(=O)[C@H](CCCCN)NC(=O)[C@H](CCC(=O)O)NC(=O)[C@@H](NC(=O)[C@H](CCC(=O)O)NC(=O)[C@@H](NC(=O)[C@H](CCSC)NC(=O)[C@H](CCCCN)NC(=O)[C@H](CCCNC(=N)N)NC(=O)[C@H](CC(C)C)NC(=O)[C@H](CC(C)C)NC(=O)[C@H](Cc1ccc(O)cc1)NC(=O)[C@H](CC(C)C)NC(=O)[C@@H]1CCCN1C(=O)[C@H](CC(C)C)NC(=O)[C@H](CC(=O)O)NC(=O)[C@@H](NC(=O)[C@H](CO)NC(=O)[C@@H](NC(=O)[C@@H]1CCCN1C(=O)[C@@H]1CCCN1C(=O)CNC(=O)[C@@H]1CCC(=O)N1)[C@@H](C)CC)[C@@H](C)CC)[C@@H](C)CC)[C@@H](C)CC)[C@@H](C)O)[C@@H](C)O)C(=O)N[C@@H](CC(C)C)C(=O)N[C@@H](C)C(=O)N[C@@H](CCCNC(=N)N)C(=O)N[C@H](C(N)=O)C(C)C [compound 353]	89.9	92.2
CC[C@H](C)[C@H](NC(=O)[C@@H](NC(=O)[C@H](CC(=O)O)NC(=O)[C@H](CC(C)C)NC(=O)[C@H](CC(C)C)NC(=O)[C@H](CC(C)C)NC(=O)[C@H](CCCNC(=N)N)NC(=O)[C@H](CC(N)=O)NC(=O)[C@H](CC(N)=O)NC(=O)[C@H](C)NC(=O)[C@H](C)NC(=O)[C@H](CCC(N)=O)NC(=O)[C@H](CCC(N)=O)NC(=O)[C@H](CCCCN)NC(=O)[C@H](CCC(=O)O)NC(=O)[C@H](CCCCN)NC(=O)[C@H](CCC(=O)O)NC(=O)[C@H](CCC(N)=O)NC(=O)[C@H](CCCCN)NC(=O)[C@H](CCC(=O)O)NC(=O)[C@@H](NC(=O)[C@H](CCC(=O)O)NC(=O)[C@@H](NC(=O)[C@H](CCSC)NC(=O)[C@H](CCCCN)NC(=O)[C@H](CCCNC(=N)N)NC(=O)[C@H](CC(C)C)NC(=O)[C@H](CC(C)C)NC(=O)[C@@H](NC(=O)[C@@H](NC(=O)[C@@H]1CCCN1C(=O)[C@H](CC(C)C)NC(=O)[C@H](CC(=O)O)NC(=O)[C@@H](NC(=O)[C@H](CO)NC(=O)[C@@H](NC(=O)[C@@H]1CCCN1C(=O)[C@@H]1CCCN1C(=O)CNC(=O)[C@@H]1CCC(=O)N1)[C@@H](C)CC)[C@@H](C)CC)[C@@H](C)CC)[C@@H](C)O)[C@@H](C)CC)[C@@H](C)CC)[C@@H](C)O)C(N)=O [compound 24]	100	18
CC[C@H](C)[C@H](NC(=O)[C@@H](NC(=O)[C@H](CC(=O)O)NC(=O)[C@H](CC(C)C)NC(=O)[C@H](CC(C)C)NC(=O)[C@H](CC(C)C)NC(=O)[C@H](CCCNC(=N)N)NC(=O)[C@H](CC(N)=O)NC(=O)[C@H](CC(N)=O)NC(=O)[C@H](C)NC(=O)[C@H](C)NC(=O)[C@H](CCC(N)=O)NC(=O)[C@H](CCC(N)=O)NC(=O)[C@H](CCCCN)NC(=O)[C@H](CCC(=O)O)NC(=O)[C@H](CCCCN)NC(=O)[C@H](CCC(=O)O)NC(=O)[C@H](CCC(N)=O)NC(=O)[C@H](CCCCN)NC(=O)[C@H](CCC(=O)O)NC(=O)[C@@H](NC(=O)[C@H](CCC(=O)O)NC(=O)[C@@H](NC(=O)[C@H](CCSC)NC(=O)[C@H](CCCCN)NC(=O)[C@H](CCCNC(=N)N)NC(=O)[C@H](CC(C)C)NC(=O)[C@H](CC(C)C)NC(=O)[C@@H](NC(=O)[C@H](CCC(N)=O)NC(=O)[C@@H]1CCCN1C(=O)[C@H](CC(C)C)NC(=O)[C@H](CC(=O)O)NC(=O)[C@@H](NC(=O)[C@H](CO)NC(=O)[C@@H](NC(=O)[C@@H]1CCCN1C(=O)[C@@H]1CCCN1C(=O)CNC(=O)[C@@H]1CCC(=O)N1)[C@@H](C)CC)[C@@H](C)CC)[C@@H](C)CC)[C@@H](C)CC)[C@@H](C)CC)[C@@H](C)O)C(N)=O [compound 199]	92	93
CC[C@H](C)[C@H](NC(=O)[C@@H](NC(=O)[C@H](C)NC(=O)[C@H](CC(C)C)NC(=O)[C@H](CC(C)C)NC(=O)[C@H](CC(C)C)NC(=O)[C@H](C)NC(=O)[C@H](CC(N)=O)NC(=O)[C@H](CC(N)=O)NC(=O)[C@H](C)NC(=O)[C@H](C)NC(=O)[C@H](CCC(N)=O)NC(=O)[C@H](CCC(N)=O)NC(=O)[C@H](CCCCN)NC(=O)[C@H](CCC(=O)O)NC(=O)[C@H](CCCCN)NC(=O)[C@H](CCC(=O)O)NC(=O)[C@H](CCC(N)=O)NC(=O)[C@H](CCCCN)NC(=O)[C@H](CCC(=O)O)NC(=O)[C@@H](NC(=O)[C@H](CCC(=O)O)NC(=O)[C@@H](NC(=O)[C@H](CCSC)NC(=O)[C@H](CCCCN)NC(=O)[C@H](CCCNC(=N)N)NC(=O)[C@H](CC(C)C)NC(=O)[C@H](CC(C)C)NC(=O)[C@H](Cc1ccc(O)cc1)NC(=O)[C@@H](NC(=O)[C@@H]1CCCN1C(=O)[C@H](CC(C)C)NC(=O)[C@H](CC(=O)O)NC(=O)[C@@H](NC(=O)[C@H](CO)NC(=O)[C@@H](NC(=O)[C@@H]1CCCN1C(=O)[C@@H]1CCCN1C(=O)CNC(=O)[C@@H]1CCC(=O)N1)[C@@H](C)CC)[C@@H](C)CC)[C@@H](C)CC)[C@@H](C)CC)[C@@H](C)CC)[C@@H](C)O)C(N)=O [compound 237]	93	18
CC[C@H](C)[C@H](NC(=O)[C@H](CCCNC(=N)N)NC(=O)[C@H](C)NC(=O)[C@H](CC(C)C)NC(=O)[C@H](CC(C)C)NC(=O)[C@H](CCCNC(=N)N)NC(=O)[C@H](C)NC(=O)[C@H](CC(N)=O)NC(=O)[C@H](CC(N)=O)NC(=O)[C@H](C)NC(=O)[C@H](C)NC(=O)[C@H](CCC(N)=O)NC(=O)[C@H](CCC(N)=O)NC(=O)[C@H](CCCCN)NC(=O)[C@H](CCC(=O)O)NC(=O)[C@H](CCCCN)NC(=O)[C@H](CCC(=O)O)NC(=O)[C@H](CCC(N)=O)NC(=O)[C@H](CCCCN)NC(=O)[C@H](CCC(=O)O)NC(=O)[C@@H](NC(=O)[C@H](CCC(=O)O)NC(=O)[C@@H](NC(=O)[C@@H](NC(=O)[C@H](CCCCN)NC(=O)[C@H](CCCNC(=N)N)NC(=O)[C@H](CC(C)C)NC(=O)[C@H](CC(C)C)NC(=O)[C@H](Cc1ccc(O)cc1)NC(=O)[C@@H](NC(=O)[C@@H]1CCCN1C(=O)[C@@H](NC(=O)[C@H](CC(=O)O)NC(=O)[C@@H](NC(=O)[C@H](CO)NC(=O)[C@@H](NC(=O)[C@@H]1CCCN1C(=O)[C@@H]1CCCN1C(=O)CNC(=O)[C@@H]1CCC(=O)N1)[C@@H](C)CC)[C@@H](C)CC)C(C)C)[C@@H](C)CC)C(C)C)[C@@H](C)CC)[C@@H](C)CC)C(N)=O [compound 379]	94	8
CC[C@H](C)[C@H](NC(=O)[C@@H](NC(=O)[C@H](CC(=O)O)NC(=O)[C@H](CC(C)C)NC(=O)[C@H](CC(C)C)NC(=O)[C@H](CC(C)C)NC(=O)[C@H](CCCNC(=N)N)NC(=O)[C@H](CC(N)=O)NC(=O)[C@H](CC(N)=O)NC(=O)[C@H](C)NC(=O)[C@H](C)NC(=O)[C@H](CCC(N)=O)NC(=O)[C@H](CCC(N)=O)NC(=O)[C@H](CCCCN)NC(=O)[C@H](CCC(=O)O)NC(=O)[C@H](CCCCN)NC(=O)[C@H](CCC(=O)O)NC(=O)[C@H](CCC(N)=O)NC(=O)[C@H](CCCCN)NC(=O)[C@H](CCC(=O)O)NC(=O)[C@@H](NC(=O)[C@H](CCC(=O)O)NC(=O)[C@@H](NC(=O)[C@H](CCSC)NC(=O)[C@H](CCCCN)NC(=O)[C@H](CCCNC(=N)N)NC(=O)[C@H](CC(C)C)NC(=O)[C@H](CC(C)C)NC(=O)[C@H](Cc1c[nH]cn1)NC(=O)[C@H](CCC(N)=O)NC(=O)[C@@H]1CCCN1C(=O)[C@H](CC(C)C)NC(=O)[C@H](CC(=O)O)NC(=O)[C@@H](NC(=O)[C@H](CO)NC(=O)[C@@H](NC(=O)[C@@H]1CCCN1C(=O)[C@@H]1CCCN1C(=O)CNC(=O)[C@@H]1CCC(=O)N1)[C@@H](C)CC)[C@@H](C)CC)[C@@H](C)CC)[C@@H](C)CC)[C@@H](C)O)C(N)=O [compound 207]	96	88
CC[C@H](C)[C@H](NC(=O)[C@H](CCC(=O)O)NC(=O)[C@@H](NC(=O)[C@H](CCSC)NC(=O)[C@H](CCCCN)NC(=O)[C@H](CCCNC(=N)N)NC(=O)[C@H](CC(C)C)NC(=O)[C@H](CC(C)C)NC(=O)[C@H](CCC(N)=O)NC(=O)[C@H](Cc1ccccc1)NC(=O)[C@@H]1CCCN1C(=O)[C@H](CC(C)C)NC(=O)[C@H](CC(=O)O)NC(=O)[C@@H](NC(=O)[C@H](CO)NC(=O)[C@@H](NC(=O)[C@@H]1CCCN1C(=O)[C@@H]1CCCN1C(=O)CNC(=O)[C@@H]1CCC(=O)N1)[C@@H](C)CC)[C@@H](C)CC)[C@@H](C)CC)C(=O)N[C@@H](CCC(=O)O)C(=O)N[C@@H](CCCCN)C(=O)N[C@@H](CCC(N)=O)C(=O)N[C@@H](CCC(=O)O)C(=O)N[C@@H](CCCCN)C(=O)N[C@@H](CCC(=O)O)C(=O)N[C@@H](CCCCN)C(=O)N[C@@H](CCC(N)=O)C(=O)N[C@@H](CCC(N)=O)C(=O)N[C@@H](C)C(=O)N[C@H](C(=O)N[C@H](C(=O)N[C@@H](CC(N)=O)C(=O)N[C@@H](C)C(=O)N[C@@H](CCCNC(=N)N)C(=O)N[C@@H](CC(C)C)C(=O)N[C@@H](CC(C)C)C(=O)N[C@@H](CC(=O)O)C(=O)N[C@H](C(=O)N[C@H](C(N)=O)C(C)C)[C@@H](C)O)[C@@H](C)O)[C@@H](C)O [compound 20]	99	60
